# In ChEMBL document CHEMBL3853302, “Anti-inflammatory and Quinone Reductase Inducing Compounds from Fermented Noni (Morinda citrifolia) Juice Exudates” (J Nat Prod, 2016):
# Protein sequences, listed by entry. Tags and fused reporters are not part of them.
# UniProt P15559, whole entry: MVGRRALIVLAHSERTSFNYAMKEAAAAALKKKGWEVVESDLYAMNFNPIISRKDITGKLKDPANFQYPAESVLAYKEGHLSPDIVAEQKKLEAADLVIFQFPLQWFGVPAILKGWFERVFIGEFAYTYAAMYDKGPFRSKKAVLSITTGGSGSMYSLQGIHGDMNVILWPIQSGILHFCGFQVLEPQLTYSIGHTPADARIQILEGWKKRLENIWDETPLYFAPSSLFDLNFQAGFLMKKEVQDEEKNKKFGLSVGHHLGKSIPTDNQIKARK
# Target: NAD(P)H dehydrogenase [quinone] 1 (Homo sapiens) (UniProt P15559)
# Details: Hepa-1c1c7
compound,measurement,value
O=c1cc(-c2ccc(Br)cc2)oc2ccccc12,CD,0.01 µM
